{"sequences": {"note": "Chains of the proteins cited; added tags and fusions are not shown.", "UniProt Q92830, whole entry, looked up": "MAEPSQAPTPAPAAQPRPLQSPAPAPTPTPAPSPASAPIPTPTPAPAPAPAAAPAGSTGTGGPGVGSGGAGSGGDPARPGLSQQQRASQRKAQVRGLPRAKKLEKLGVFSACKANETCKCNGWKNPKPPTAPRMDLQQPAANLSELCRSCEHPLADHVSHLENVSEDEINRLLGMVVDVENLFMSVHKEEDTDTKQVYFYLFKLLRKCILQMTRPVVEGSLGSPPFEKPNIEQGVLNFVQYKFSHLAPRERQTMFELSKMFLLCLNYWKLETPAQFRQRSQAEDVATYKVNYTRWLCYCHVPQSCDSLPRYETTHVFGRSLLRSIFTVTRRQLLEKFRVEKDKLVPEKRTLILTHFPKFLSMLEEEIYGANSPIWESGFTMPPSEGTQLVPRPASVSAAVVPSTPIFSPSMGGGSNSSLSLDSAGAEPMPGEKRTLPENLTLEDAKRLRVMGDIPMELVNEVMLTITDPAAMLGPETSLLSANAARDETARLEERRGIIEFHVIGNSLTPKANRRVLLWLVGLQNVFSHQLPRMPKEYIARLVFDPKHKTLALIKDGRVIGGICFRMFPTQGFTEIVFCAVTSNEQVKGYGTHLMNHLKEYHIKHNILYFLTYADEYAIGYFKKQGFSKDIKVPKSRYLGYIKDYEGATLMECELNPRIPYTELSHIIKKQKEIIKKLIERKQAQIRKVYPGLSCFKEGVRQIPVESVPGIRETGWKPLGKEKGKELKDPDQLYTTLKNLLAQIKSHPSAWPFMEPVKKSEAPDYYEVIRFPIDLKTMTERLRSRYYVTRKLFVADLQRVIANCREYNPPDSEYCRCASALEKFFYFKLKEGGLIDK"}, "source": "PubChem BioAssay AID504327", "about": "(National Center for Advancing Translational Sciences (NCATS), 2011)", "note": "Only a part is listed here, and it is no random draw. Inconclusive results are not listed. Calls of active or inactive are those of the source. The call rests on the fitted dose curve; in most records, active means well fitted inhibition curve with a large enough effect; inconclusive means small, poorly fitted or top-dose-only effect, or another doubt; inactive means no such curve, though single readings can be large or run the other way. On the % scale 0 is the no-effect control and ±100 the full control effect; potency means the concentration at half of the fitted maximal effect.", "data": [{"biological_target": "Histone acetyltransferase KAT2A (Homo sapiens) (UniProt Q92830)", "assay": "qHTS Assay for Inhibitors of GCN5L2", "details": "GCN5L2 HAT assay, ThioGlo1 CoA-SH fluorescence; series mostly up to 58.9 µM; activity change, negative = inhibition: at the top concentration", "values": [{"smiles": "CS(=O)(=O)c1ccc(Cl)c(NC(=O)COC(=O)C(O)(c2ccccc2)c2ccccc2)c1", "activity change, negative = inhibition": "inactive: -0.0724%"}, {"smiles": "O=[As](O)(O)c1cccnc1", "activity change, negative = inhibition": "inactive: 3%"}, {"smiles": "COc1cc(C(=O)NCC2(N3CCOCC3)CCCCC2)cc(Cl)c1OC(C)C", "activity change, negative = inhibition": "inactive: -2.37%"}, {"smiles": "CN(C(=O)Cc1ccc(Cl)c(Cl)c1)[C@@H]1CC[C@]2(CCCO2)C[C@H]1N1CCCC1", "Potency": "inactive"}, {"smiles": "O=C(OC1CN2CCC1CC2)c1ccc(Cl)cc1", "note": "(centres undefined)", "activity change, negative = inhibition": "inactive: -15%"}, {"smiles": "O=[As](O)(c1cccc(O)c1)c1cccc(O)c1", "activity change, negative = inhibition": "inactive: -0.737%"}, {"smiles": "CCCOP(=S)(Nc1nc(N)cc(=O)[nH]1)OCCC", "activity change, negative = inhibition": "inactive: -15.5%"}, {"smiles": "Nc1cccc2c([As](=O)(O)O)cccc12", "activity change, negative = inhibition": "inactive: -16.1%"}, {"smiles": "Cc1ccc(NCCc2c([N+](=O)[O-])cc([N+](=O)[O-])cc2[N+](=O)[O-])cc1", "activity change, negative = inhibition": "inactive: 28.6%"}, {"smiles": "CCOP(=O)(Nc1cccc2ccccc12)OCC", "activity change, negative = inhibition": "inactive: -4.91%"}, {"smiles": "COc1cc(C2NCCC3(OCCO3)C2(C)C)cc(OC)c1OC", "note": "(centres undefined)", "activity change, negative = inhibition": "inactive: -5.08%"}, {"smiles": "CS(=O)(=O)c1cc([N+](=O)[O-])c2no[n+]([O-])c2c1", "Potency": "active: 7.94 µM"}, {"smiles": "O=P(Nc1nccs1)(Oc1ccccc1)Oc1ccccc1", "activity change, negative = inhibition": "inactive: -2.67%"}, {"smiles": "O=P(Nc1nccs1)(c1ccccc1)c1nc2ccccc2s1", "note": "(centres undefined)", "Potency": "active: 3.16 µM"}, {"smiles": "CCOP1(=S)c2c(C)nn(CCC#N)c2N=C(c2ccccc2F)N1C", "note": "(centres undefined)", "activity change, negative = inhibition": "inactive: 1.04%"}, {"smiles": "Nc1ccccc1[As](=O)(O)c1ccccc1", "activity change, negative = inhibition": "inactive: -9.45%"}, {"smiles": "NC(=O)Nc1ccc([As](=O)(O)O)cc1", "Potency": "inactive"}, {"smiles": "O=[N+]([O-])c1ccc2c(c1)nnn2O", "activity change, negative = inhibition": "inactive: -1.38%"}, {"smiles": "CCOP1(=S)c2c(C)nn(CCC#N)c2N=C(c2ccc(F)cc2)N1C", "note": "(centres undefined)", "activity change, negative = inhibition": "inactive: -3.78%"}, {"smiles": "CN(C(=O)Cc1ccccc1)[C@@H]1CC[C@]2(CCCO2)C[C@H]1N1CCCC1", "Potency": "inactive"}, {"smiles": "N#CCCN(C(=O)COC(=O)C(O)(c1ccccc1)c1ccccc1)c1ccc(F)cc1", "activity change, negative = inhibition": "inactive: -6.97%"}, {"smiles": "Cc1ccc(C(=O)OC2CN3CCC2CC3)cc1", "note": "(centres undefined)", "activity change, negative = inhibition": "inactive: 1.31%"}, {"smiles": "CC1CCC(C(C)C)C(OP(=O)(Nc2ccccn2)c2ccccc2)C1", "note": "(centres undefined)", "activity change, negative = inhibition": "inactive: -13.5%"}, {"smiles": "Cc1nn(-c2ccccc2)c2c1P(=O)(N1CCOCC1)N(C)C(c1ccccc1)=N2", "note": "(centres undefined)", "activity change, negative = inhibition": "inactive: 3.78%"}, {"smiles": "O=C(/C=C/c1ccccc1)OC1CN2CCC1CC2", "note": "(centres undefined)", "activity change, negative = inhibition": "inactive: -5.13%"}, {"smiles": "CN(C)C1(CNC(=O)c2ccc(S(C)(=O)=O)cc2)CCCCC1", "activity change, negative = inhibition": "inactive: -15.6%"}, {"smiles": "O=P1(Nc2ncccn2)COc2ccccc2OC1", "activity change, negative = inhibition": "inactive: -14.2%"}, {"smiles": "O=[As](O)(c1cccs1)c1cccs1", "activity change, negative = inhibition": "inactive: 5.63%"}, {"smiles": "Cc1ccc(OCC(=O)OC2CN3CCC2CC3)cc1", "note": "(centres undefined)", "activity change, negative = inhibition": "inactive: 0.756%"}, {"smiles": "NS(=O)(=O)c1cccc(NC(=O)COC(=O)C(O)(c2ccccc2)c2ccccc2)c1", "activity change, negative = inhibition": "inactive: -2.65%"}, {"smiles": "O=P1(Nc2ccc(Br)cn2)COc2ccccc2OC1", "activity change, negative = inhibition": "inactive: -4.75%"}, {"smiles": "Nc1cccc([As](=O)(O)c2ccccc2)c1", "activity change, negative = inhibition": "inactive: -3.5%"}, {"smiles": "CCOP(=O)(Nc1ccc(C)cn1)OCC", "activity change, negative = inhibition": "inactive: -1.49%"}, {"smiles": "CN(CCCl)Cc1cc(Cl)c(NC2=NCCN2)c(Cl)c1", "activity change, negative = inhibition": "inactive: -9.62%"}, {"smiles": "CCOP(=O)(NC(=NC(C)c1ccccc1)NC(C)c1ccccc1)OCC", "note": "(centres undefined)", "activity change, negative = inhibition": "inactive: 2.7%"}, {"smiles": "CCC1=CC2Cc3nc4ccc(Cl)cc4c(N)c3C(C1)C2", "note": "(centres undefined)", "activity change, negative = inhibition": "inactive: -4.14%"}, {"smiles": "O=P1(Nc2ccccn2)COc2ccccc2OC1", "activity change, negative = inhibition": "inactive: 0.193%"}, {"smiles": "CC(C)(C)C(=O)NC(Sc1ncccn1)C(Cl)(Cl)Cl", "note": "(centres undefined)", "activity change, negative = inhibition": "inactive: 29.5%"}, {"smiles": "Clc1n[nH]nc1-c1nn[nH][15n]1", "activity change, negative = inhibition": "inactive: -1.74%"}, {"smiles": "COc1ccccc1CNC(=O)COC(=O)C(O)(c1ccccc1)c1ccccc1", "activity change, negative = inhibition": "inactive: -4.09%"}, {"smiles": "O=[As](O)(c1ccccc1Br)c1ccccc1Br", "activity change, negative = inhibition": "inactive: 0.621%"}, {"smiles": "CC(C)/C=N\\N=C(\\N)N[N+](=O)[O-]", "activity change, negative = inhibition": "inactive: -20.8%"}, {"smiles": "COP1(=S)c2c(C)nn(CCC#N)c2N=C(c2ccc(F)cc2)N1C", "note": "(centres undefined)", "activity change, negative = inhibition": "inactive: 0.464%"}, {"smiles": "O=C(Nc1ccncc1[N+](=O)[O-])c1ccc([N+](=O)[O-])cc1[N+](=O)[O-]", "activity change, negative = inhibition": "inactive: -4.78%"}, {"smiles": "O=C(COc1ccccc1)OC1CN2CCC1CC2", "note": "(centres undefined)", "activity change, negative = inhibition": "inactive: 0.271%"}, {"smiles": "CCOC(=O)c1ccc(NC(=O)C(C)(CCl)SC)cc1", "note": "(centres undefined)", "activity change, negative = inhibition": "inactive: -0.697%"}, {"smiles": "O=C(OC1CN2CCC1CC2)c1cccc([N+](=O)[O-])c1", "note": "(centres undefined)", "activity change, negative = inhibition": "inactive: -7.73%"}, {"smiles": "CCC(C)N(CC(C)C)C(=S)SC(NC(C)=O)C(Cl)(Cl)Cl", "note": "(centres undefined)", "activity change, negative = inhibition": "inactive: -3.98%"}, {"smiles": "CCOC(=O)Nc1ccc([As](=O)(O)O)c(O)c1", "activity change, negative = inhibition": "inactive: 0.273%"}, {"smiles": "Cc1cc(SC(NC(=O)c2ccccc2)C(Cl)(Cl)Cl)nc(C(C)C)n1", "note": "(centres undefined)", "activity change, negative = inhibition": "inactive: 41.2%"}, {"smiles": "CCCCOc1ccc(C(=O)NCC2(N3CCCCC3)CCCCC2)cc1OC", "activity change, negative = inhibition": "inactive: -4.27%"}, {"smiles": "CCOC(=O)Nc1cccc([As](=O)(O)O)c1", "activity change, negative = inhibition": "inactive: 2.92%"}, {"smiles": "O=[N+]([O-])c1ccc(Nc2ccc(Oc3ccc([N+](=O)[O-])cc3[N+](=O)[O-])cc2)c([N+](=O)[O-])c1", "activity change, negative = inhibition": "inactive: 1.44%"}, {"smiles": "Cc1cc(SC(NC=O)C(Cl)(Cl)Cl)ncn1", "note": "(centres undefined)", "activity change, negative = inhibition": "inactive: 15.8%"}, {"smiles": "O=P(Nc1ccccn1)(c1cccc2ccccc12)c1cccc2ccccc12", "activity change, negative = inhibition": "inactive: -11%"}, {"smiles": "COc1cc(C(=O)NCC2(N3CCOCC3)CCCCC2)ccc1OCC(C)C", "activity change, negative = inhibition": "inactive: -4.25%"}, {"smiles": "O=[As](O)(c1ccc(O)cc1)c1ccccc1O", "activity change, negative = inhibition": "inactive: 0.524%"}, {"smiles": "C[As](=O)(O)c1cccc(C(=O)O)c1", "activity change, negative = inhibition": "inactive: -4.65%"}, {"smiles": "Cc1ccc2nc3c(c(C)c2c1)CC(C(Cl)Cl)S3", "note": "(centres undefined)", "activity change, negative = inhibition": "inactive: -4.96%"}]}]}
